{
  "source": "patent US8460894B2",
  "about": "“Calcium-sensing receptor 2 (CaR2) and methods for using” (ABT Holding Company, priority 2002, dated 2013)",
  "target": "T1, CaR2 (Homo sapiens, UniProt Q5T6X5, P91S)",
  "T1 construct": "molecular acquisition of the full-length cDNA led to the identification of the six coding exons; expressed in transfected cells",
  "T1 sequence (Q5T6X5 19-926 P91S)": "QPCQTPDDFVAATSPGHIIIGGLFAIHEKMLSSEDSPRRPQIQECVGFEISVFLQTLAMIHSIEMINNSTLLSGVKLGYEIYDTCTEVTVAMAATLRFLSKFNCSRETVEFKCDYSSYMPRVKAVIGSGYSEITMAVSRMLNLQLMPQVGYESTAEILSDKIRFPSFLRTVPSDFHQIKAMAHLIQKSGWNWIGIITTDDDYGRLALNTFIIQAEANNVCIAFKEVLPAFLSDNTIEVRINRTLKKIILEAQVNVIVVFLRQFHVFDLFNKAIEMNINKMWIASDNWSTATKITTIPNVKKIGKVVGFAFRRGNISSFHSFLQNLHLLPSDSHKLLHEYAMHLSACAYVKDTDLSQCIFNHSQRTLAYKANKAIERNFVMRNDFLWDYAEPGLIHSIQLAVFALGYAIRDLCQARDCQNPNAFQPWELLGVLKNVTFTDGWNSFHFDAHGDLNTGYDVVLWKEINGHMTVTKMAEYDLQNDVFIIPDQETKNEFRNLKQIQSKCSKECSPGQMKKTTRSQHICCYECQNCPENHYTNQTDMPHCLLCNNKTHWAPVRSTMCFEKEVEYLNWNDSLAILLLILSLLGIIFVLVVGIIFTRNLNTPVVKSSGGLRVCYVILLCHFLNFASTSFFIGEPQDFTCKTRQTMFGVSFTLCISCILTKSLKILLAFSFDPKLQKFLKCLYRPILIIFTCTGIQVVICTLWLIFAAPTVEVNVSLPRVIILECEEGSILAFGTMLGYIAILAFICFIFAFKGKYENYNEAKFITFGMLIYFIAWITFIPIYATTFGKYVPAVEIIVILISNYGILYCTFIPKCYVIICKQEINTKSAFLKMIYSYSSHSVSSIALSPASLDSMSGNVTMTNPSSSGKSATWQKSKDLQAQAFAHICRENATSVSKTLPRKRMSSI",
  "assay": "FLIPR intracellular Ca^++ assay in HEK293 clone expressing CaR2 (HEK-167B12-2.1)",
  "type": "cell-based",
  "conditions": "either ligand (BMP-2 or CT) added alone, absence of calcium",
  "description": "To facilitate pharmacological experimentation, CaR2 cDNA was cloned into the mammalian expression vector pcDNA 3.1 (+) Neo with or without a COOH-terminal FLAG epitope. The transgene was introduced into the HEK293 cell line and stable transfectants were identified. These clones were analyzed for CaR2 expression by qPCR and Western blotting to identify those clones that were suitable for ligand identification. The clone HEK-167B12-2.1 was chosen for further experimentation.\nBased on the homology to the characterized goldfish odorant receptor 5.24, initial studies investigated the ability of 18 naturally occurring amino acids to trigger changes of intracellular Ca^++ levels in the transfected cells, as measured with a fluorescent imaging plate reader (FLIPR).\nIntracellular Ca^++ was measured using a fluorometric imaging plate reader (FLIPR) [Molecular Devices]. Cells were seeded at a density of 1×10^5/well (96-well plate) or 1×10^4/well (384-well plate) in collagen coated plates and incubated overnight at 36.9° C. with 5% CO2. Medium was aspirated from the plates and replaced with equal volumes of a no wash calcium dye (Molecular Devices) and modified Hank's buffered saline solution [Ca^2+-free, Mg^2+-free] […] FLIPR was used to measure changes in intracellular calcium as relative fluorescence upon activation by ligand.",
  "data": [
    {"substance": "BMP-2: bone morphogenic peptide, agent known to modulate bone metabolism", "values": [
      {"measurement": "intracellular Ca^++ in the CaR2 clone", "value": "not seen"}
    ]}
  ]
}
